Test results published in patent publication US4101676A, “Diphenylpropylamines to treat depression” (Beecham Group Limited, priority 1973, dated 1978).

Target: T1, Guinea Pig Ileum (Cavia porcellus)
T1 construct: from tissue; host or cells: guinea pig ileum
Test: pA2 Determination on Guinea Pig Ileum (antagonism to Acetylcholine)
Settings: in vitro, read-out: pA2 on Iillium (converted)
Excerpt: It is thus a means of expressing anticholinergic activity which is independent of the dose of Acetylcholine and the piece of tissue used. The method used is similar to that of Schild, [Brit. J. Pharmacol. 14 (1959) 48] the tissue being bathed in Tyrode solution and a dose response curved for Acetylcholine being obtained.

CN(C)CCC=C1c2ccccc2CCc2ccccc21 [Amitriptyline hydrochloride, reference compound]
Kb: 0.01 µM

Counter-ions that a name gives are not always drawn.
